Assay results published in paper PMC9540496 (Clinical Pharmacology and Therapeutics, 2022).

Assay: Phase I crossover DDI study: metformin
Settings: 90% CIs within acceptance range of 80–125%

CN(C)C(=N)N=C(N)N [Metformin, metformin]
plasma exposure and CLr on co‐administration with abrocitinib: unaffected
